The values that follow are results of earlier work, collected in patent US20170088822A1 (priority 2015, published 2017).

Broadly, the IC50 is the concentration at which inhibition is half-maximal.

The data set concerns the target T1, FabI from Staphylococcus aureus (SaFabI) (Staphylococcus aureus, UniProt Q6GI75).
T1 sequence (Q6GI75 1-256): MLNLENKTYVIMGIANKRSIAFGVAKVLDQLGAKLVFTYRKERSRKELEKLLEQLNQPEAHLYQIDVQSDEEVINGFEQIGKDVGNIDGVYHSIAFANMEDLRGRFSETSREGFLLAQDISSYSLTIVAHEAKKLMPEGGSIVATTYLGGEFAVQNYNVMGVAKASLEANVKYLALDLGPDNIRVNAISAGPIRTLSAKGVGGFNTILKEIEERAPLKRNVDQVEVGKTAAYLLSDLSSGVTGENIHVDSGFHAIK
The note with it: cited from earlier work.

As to AFN-1252, the concentration for half-maximal inhibition (IC50) was 14 nM.
